Results reported in patent US7128895B2, “Use of bile acid derivatives conjugated with metal ion chelated complexes for the diagnostic assessment of microvascular permeability” (Bracco Imaging S.p.A., priority 2000, dated 2006).

Assay: Urinary and faecal excretion screening of an intravenously administered contrast agent
Type: in vivo
Details: rats, even at the highest injected doses
Description: Experimental Model for the Urinary and Faecal Excretion Screening of an Intravenously Administered Contrast Agent
The experimentation is performed on 6 rats. The animals are intravenously injected (in the marginal caudal vein) with single doses of 0.1 and 1.0 mmol·kg^−1 of B22956/1 contrast agent at an injection rate of 6 mL/min.
The rats are individually housed in metabolic cages and urine and faeces are collected daily, for 7 days after administration. In particular faeces and urine are collected at the following time periods: 0 to 24 h,and every 24 hours up to 7 days.
The animals are killed by decapitation at 7 days post-dosing and animals blood is collected in heparinised test tubes and then centrifuged for 15 min at 3500·g to separate the plasma. After bleeding, liver, spleen, femurs and kidneys are collected and weighted to evaluate residual content of Gd in the organs. Residual gadolinium concentration in the organic samples is determined by inductively-coupled plasma atomic emission spectrometry (ICP-AES) with a Jobin-Yvon Mod 24 spectrometer
Excretion Screening of Rats Injected with B22956/1.
The screening is performed using the contrast compound as 0.25M solution. The agent in intravenously injected in 6 rats with single doses of 0.1 and 1.0 mmol·kg^−1 of animal body weight.

gadolinium complex of the [3(S),5,12]-3-[[4-[bis[2-[bis(carboxymethyl)-amino]ethyl]amino]-4-carboxy-1-oxobutyl]amino]-12-hydroxycholan-24-oic acid [B22956/1]
clinical signs between administration and sacrifice: no animal showed any clinical sign
